Measured values published in BindingDB's records for PubMed 3010074 (Warner-Lambert/Parke-Davis Pharmaceutical Research, 1986).

Amino acid sequences for entries named in this document (tags omitted).
UniProt P25099, whole entry: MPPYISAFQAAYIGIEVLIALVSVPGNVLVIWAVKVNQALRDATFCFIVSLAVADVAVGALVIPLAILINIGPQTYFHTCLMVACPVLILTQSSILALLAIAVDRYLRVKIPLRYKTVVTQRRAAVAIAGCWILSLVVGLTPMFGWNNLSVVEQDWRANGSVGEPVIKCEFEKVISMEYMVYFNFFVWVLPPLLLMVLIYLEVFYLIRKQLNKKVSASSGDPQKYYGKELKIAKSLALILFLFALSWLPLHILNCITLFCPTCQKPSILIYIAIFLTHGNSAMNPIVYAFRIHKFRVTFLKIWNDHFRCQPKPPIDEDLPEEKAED

Molecular target: Adenosine receptor A1 (Rattus norvegicus, UniProt P25099)

- Ki: 120 nM
Structure (SMILES): OC[C@H]1O[C@@H](n2cnc3c(NCc4ccccc4)ncnc32)[C@H](O)[C@@H]1O [N6-benzylado]
